Patent US4544740A, “Process for the preparation of 5-(2-bromovinyl)-uridine” (priority 1981, dated 1985)

How the values were obtained:
mice = conditions: mouse, in vivo
[1] = tested on: type 1 Herpes simplex virus; assay: Inhibitory effect of nucleoside analogues on multiplication of type 1 Herpes simplex in HeLa cell culture (virus titer, TCID50); type: cell-based, Herpes simplex virus type 1; conditions: HeLa cell cultures, Herpes simplex type 1 virus, compared to controls exerting 50 percent inhibition
Source text: A method was developed for the testing of the antiviral activity of various drugs in solution which is suitable for the exact, sensitive and objective in vitro assay of drug activity exerted on the cells and tissues of both warm-blooded animals and men [Toxicology 16, 59 (1980)]. The method is also suitable for calculating from the test data the highest concentration of the test drug in the tissue culture medium which is not impairing the tissue yet (CTo).
The difference in the logarithm of virus titers may be considered the objective indicator of the rate of inhibition of virus multiplication.

For O=c1[nH]c(=O)n([C@@H]2O[C@H](CO)[C@@H](O)[C@H]2O)cc1/C=C/Br [A, (E)-5-(2-Bromovinyl)-uridine], the “tissue toxicity, toxicity trial on mice, in words” value (mice) was “favourable tissue toxicity” and the therapeutic index [1] was 63.
